This note sets out measurements from US5508311A, “Aliphatic propargylamines as selective MAO-B inhibitors and as neuroprotective agents” (University of Saskatchewan, priority 1993, dated 1996).

This test relates to dopamine neurons. The test can be described thus: Protection of dopamine neurons against MPTP-induced neurotoxicity in the mice brain. The class given is in vivo, mouse. Particulars: MPTP alone (4×20 mg/Kg). The method, then:
The analyses of MPTP-induced neurotoxicity were conducted in accordance with Heikkila et al. (Proc. Natl. Acad. Sci. U.S.A. 85 (1988), 6172-6176) hereby incorporated by reference. Mice were treated with 4×20 mg/Kg MPTP-HCl (MPTP: N-methyl-4-phenyl-1,2,3,6-tetrahydropyridine) every 2 hours to induce depletion in the caudate nucleus. Two hours prior to MPTP challenge, aliphatic propargylamines were administered to the animals. Three days later, dopamine levels and dopamine uptake site densities (GBR bindings) were estimated.

Regarding `CN1CC=C(c2ccccc2)CC1` [MPTP, N-methyl-4-phenyl-1,2,3,6-tetrahydropyridine, reference compound], the Dopamine was determined as 3.3 μg/gm. The Dopamine binding site (GBR binding) is 221 pmol/mg.
